Patent US8354379B2, “Peptides that enhance acetylcholinesterase expression” (dated 2013)

The chains behind the UniProt entries cited, without tags or fusion partners. Where a name states a change or a piece, a line headed by the entry shows the natural chain unless it says otherwise.
UniProt P22303: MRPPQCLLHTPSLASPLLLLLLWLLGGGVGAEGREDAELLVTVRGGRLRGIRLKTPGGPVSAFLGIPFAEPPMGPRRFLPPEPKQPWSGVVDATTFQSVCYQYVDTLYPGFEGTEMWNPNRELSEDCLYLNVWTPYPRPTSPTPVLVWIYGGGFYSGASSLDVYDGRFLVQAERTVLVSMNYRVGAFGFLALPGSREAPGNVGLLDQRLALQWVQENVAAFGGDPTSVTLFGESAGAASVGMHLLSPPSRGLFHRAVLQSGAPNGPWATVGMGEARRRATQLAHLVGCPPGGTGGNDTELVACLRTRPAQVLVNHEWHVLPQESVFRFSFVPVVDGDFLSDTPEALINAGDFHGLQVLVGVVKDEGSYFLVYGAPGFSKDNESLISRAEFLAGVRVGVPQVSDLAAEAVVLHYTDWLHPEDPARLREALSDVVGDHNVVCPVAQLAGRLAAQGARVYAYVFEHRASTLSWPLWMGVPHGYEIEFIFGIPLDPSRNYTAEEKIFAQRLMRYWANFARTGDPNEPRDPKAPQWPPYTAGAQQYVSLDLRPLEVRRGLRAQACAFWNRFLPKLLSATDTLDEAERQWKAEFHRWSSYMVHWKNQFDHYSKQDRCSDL

Experiments:
[1] = test system: AChE; experiment: Incubation of primary quail muscle cells with ColQ PRAD peptide; medium analyzed by velocity sedimentation and AChE assay; conditions: primary quail muscle cultures, overnight in defined medium, 10 uM peptide
[2] = test system: AChE; experiment: Incubation of cultured cells expressing AChE with synthetic PRAD peptides; conditions: primary skeletal muscle cells, COS cells and HEK-293 cells expressing AChE from several species
[3] = target: human AChE (Homo sapiens, UniProt P22303); experiment: Recovery of secreted AChE forms after DFP treatment of COS cells expressing human AChE (velocity sedimentation, Ellman assay); conditions: 10 uM DFP 10 minutes, recovery 6 hours with 10 uM peptide vs without
[4] = test system: AChE; experiment: Ability of peptides to enhance AChE expression (G4 AChE level) in COS cells expressing AChE; conditions: COS cells expressing human and/or mouse AChE; peptide at optimal concentration determined for ColQ PRAD-KDEL; untreated control 0.4798

| Sequence | G4 AChE level [4] | also measured |
| --- | --- | --- |
| CCLLTPPPPPLFPPPFF |  | change in tetrameric G4 AChE activity in medium [1]: more than doubling; AChE expression [2]: increased AChE expression |
| CCLLTPPPPPLFPPPFFKDEL | 2.3748 | change in dimeric AChE form [3]: only a small decrease; increase in secreted tetrameric AChE form [3]: 350% |
| KRSVNKCCLLTPPPPPLFPPPFFKDEL | 2.3723 |  |
| KRSVNKCCLLTPPPPPLFPPPFFTETNILKDEL | 2.1384 |  |
| VNKCCLLTPPPPPLFPPPFFKDEL | 2.2609 |  |
| VNKCCLLTPPPPPLFPPPFFTETKDEL | 2.1710 |  |
